Values quoted from earlier work in patent US12594281B2, “Pharmaceutical dosage forms and methods of use” (EMALEX BIOSCIENCES, INC., priority 2024, dated 2026).

The chains behind the UniProt entries cited, without tags or fusion partners.
UniProt P14416, whole entry: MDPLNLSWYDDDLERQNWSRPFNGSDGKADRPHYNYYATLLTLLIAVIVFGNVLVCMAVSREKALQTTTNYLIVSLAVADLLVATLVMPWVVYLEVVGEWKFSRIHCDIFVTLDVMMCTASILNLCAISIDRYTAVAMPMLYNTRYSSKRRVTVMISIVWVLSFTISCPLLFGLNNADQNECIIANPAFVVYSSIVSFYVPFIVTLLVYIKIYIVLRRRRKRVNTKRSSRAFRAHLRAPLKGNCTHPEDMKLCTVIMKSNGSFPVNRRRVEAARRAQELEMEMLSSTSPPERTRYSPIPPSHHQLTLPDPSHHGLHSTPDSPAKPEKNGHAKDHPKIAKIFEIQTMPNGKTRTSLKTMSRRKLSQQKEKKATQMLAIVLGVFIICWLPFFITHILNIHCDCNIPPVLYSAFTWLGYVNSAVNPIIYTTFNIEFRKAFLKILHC

Target: ^3H-Spip binding site (Homo sapiens, UniProt P14416)
Details: read-out: Ki ^3H-Spip; cited from earlier work

SMILES	Ki [µM]
COc1cc2c(cc1O)CCN(C)[C@H]1CCc3ccccc3[C@@H]21 (relative stereo)	> 100
COc1cc2c(cc1O)CCN(C)[C@H]1CCc3ccccc3[C@H]21 (relative stereo)	> 100
